In the data set the test system is MKs. The following applies: live-cell microscopy.

For the substance trastuzumab emtansine [T-DM1], the MK differentiation entry was “inhibits” and the proPLT formation entry is “disrupts”. Also, the tubulin organization result (GFP-β1 tubulin) is recorded as “abnormal”.
